Data published in patent publication US6569867B2, “Polyketide derivatives” (Kosan Biosciences, Inc., priority 1999, dated 2003).

Target: calcineurin
Assay: Calcineurin phosphatase inhibition assay (FKBP-compound complex)
Type: biochemical
Conditions: 15 nM calcineurin, 30 nM calmodulin, 1 uM phospho-RII peptide, 30° C.
Procedure: The catalytic subunit of protein kinase A was used to transfer the labeled phosphate from [γ-^32P]ATP to […] of the RII peptide. […] Fractions were collected and monitored by scintillation counting. […] The columns were prepared by resuspending the resin in water such that there was one volume of water above each volume of settled resin. The slurry (1 mL) was then pipetted into each column, followed by 10 mL of water. The bed volume was verified, then each column was washed with 1 mL 1 N NaOH, 2 mL 1 N HCl, and 4 mL water. Quenched reaction mixtures were applied to the columns, washed twice with 750 uL of water and the eluate was collected directly into scintillation vials. Scintiverse BD (15 mL) was added to each vial, and ^32PO4 was quantitated by scintillation counting. […] Following a 30 minute preincubation, reactions were initiated by addition of the phospho-RII peptide substrate to 1 uM and incubated at 30° C. Aliquots were removed at 3 and 35 minutes, quenched, and PO4 release was measured as described above.

- Ki: 49 nM
SMILES: CC[C@@H]1/C=C(\C)C[C@H](C)C[C@H](OC)[C@H]2O[C@@](O)(C(=O)C(=O)N3CCCC[C@H]3C(=O)O[C@H](/C(C)=C/[C@@H]3CC[C@@H](O)[C@H](OC)C3)[C@H](C)[C@@H](O)CC1=O)[C@H](C)C[C@@H]2OC [FK-520, ascomycin, reference compound]
